Earlier results, collected in paper PMC8745263 (International Journal of Molecular Sciences, 2021).

Test system: APEH
Settings: cited from earlier work

For “DAEFRHDSGYEVH(ox)H(ox)QKLVF(ox)F(ox)AEDVGSNK”, the cleaved bond is given as “H(ox)-Q; also recorded: F(ox)-F(ox)”.

“Also recorded” adds a separate entry of the source.
